This note sets out measurements from PubChem BioAssay (Tox21).

Each structure is given as a SMILES string. Where “and” joins values, the source holds several entries; their conditions need not be identical. Identical values can stand only once. The entries are a selection whose mix differs from that of the whole data set. Results filed as inconclusive are left out. Calls of active or inactive are those of the source. Calls come from the whole dose curve.
% is set by controls: 0 for no effect and ±100 for the full control effect.

The nature of one assay: cAMP Responsive Elements (CRE) small molecule agonists, cell-based qHTS assay (AID 1963590). The settings on record: CRE-bla HEK293T, beta-lactamase FRET ratio, 3 h; at 42.5 µM (top of the series). From the text: U.S. Tox21 Program National Center for Advancing Translational Sciences [NCATS] Division of Preclinical Innovation [DPI] U.S. Environmental Protection Agency [EPA] National Institutes of Environmental Health Sciences [NIEHS] National Toxicology Program [NTP] U.S. Food and Drug Administration [FDA] Tox21 Assay Overview: CREB (cyclic-AMP Responsive Element Binding Protein) is a cellular transcription factor. It binds to certain DNA sequences called cAMP Responsive Elements (CRE) and regulates the transcription of the genes. […] This cell line can be used to find agonists/antagonists of the cyclic AMP signaling pathway. The activation of the report gene under culture conditions can be detected by fluorescence intensity. This cell line has been used to screen the Tox21 10K compound library to identify agonists that induce oxidative stress.
Tox21 Assay Protocol Summary: CRE-bla Hek 293T cells were suspended in assay medium (DMEM containing 10% dialyzed FBS, 0.1 mM NEAA, 1 mM sodium pyruvate and 25 mM HEPES) and dispensed at 2,000 cells/5 uL /well into 1536-well black wall/clear bottom plates using a Multidrop Combi (ThermoFisher Scientific, Waltham, MA) dispenser. After the assay plates were incubated at 37 C/5% CO2 for 18 hrs, 23 nL of compounds dissolved in DMSO, positive controls or DMSO only was transferred to the assay plate by a pintool workstation (Kalypsys, San Diego, CA). After the plates were incubated at 37 C/5% CO2 for 3 hrs, 1 uL of LiveBLAzer B/G FRET substrate (Invitrogen, Carlsbad, CA) was added to each well using Bioraptr Flying Reagent Dispenser (FRD, Aurora Discovery, San Diego, CA). The plates were incubated at room temperature for 2 h.
For `NC(=O)Nc1ccc([As](=O)(O)O)cc1`, the activation was inactive: -0.117%.

The same assay, now with this note: CRE-bla HEK293T, beta-lactamase FRET ratio, 3 h; at 92.4 µM (top of the series).
On to `NC(=O)Nc1ccc([As](=O)(O)O)cc1`, for which the activation was inactive: -0.0068%.

The assay is the same for the next values; noted with them: CRE-bla HEK293T, beta-lactamase FRET ratio, 3 h; at 92.4 µM (top of the series) unless noted.
On to `CCOC(=O)Cl`, for which the activation was inactive: -0.585%.

With `O=C(Cl)Oc1ccccc1`, the activation is inactive: -0.613%.

Turning to `O=[N+]([O-])c1ccc([N+](=O)[O-])cc1`, the activation was inactive: 0.102%.

Consider `CN(C(=O)Cc1ccc(Cl)c(Cl)c1)[C@H]1CC[C@@]2(CCCO2)C[C@@H]1N1CCCC1`, for which the activation is inactive: -1.35% [at 42.5 µM].

`CN(C(=O)Cc1ccccc1)[C@H]1CC[C@@]2(CCCO2)C[C@@H]1N1CCCC1`: the activation was inactive: 1.73% [at 42.5 µM].

On to `CN(N=O)C(=N)N[N+](=O)[O-]`, for which the activation is inactive: 0.0905%.

In the case of `COC(=O)Cl`, the activation is inactive: 4.27%.

Turning to `O=C(Cl)OCCOC(=O)Cl`, the activation is inactive: 0.575%.

`CCCCC(CC)CO[P+](=O)OCC(CC)CCCC` (centres undefined): the activation is inactive: 0.475%.

On to `COP(=S)(Cl)OC`, for which the activation was inactive: 0.56%.

As to `CC(C)CCCCCCCOP(OCCCCCCCC(C)C)Oc1ccccc1`, the activation is inactive: -2.89%.

Turning to `ClP(Cl)c1ccccc1`, the activation is inactive: -0.229%.

Regarding `CCCCOP(OCCCC)OCCCC`, the activation was inactive: -1.21%.

In the case of `CCNC(C)Cc1ccc2c(c1)OCO2` (centres undefined), the activation was inactive: 0.0773%.

Turning to `CCC(C)(OOC(C)(C)C)OOC(C)(C)C`, the activation was inactive: -0.691% [at 19 µM].

`CCOP(=S)(CC)Sc1ccccc1` (centres undefined): the activation is inactive: 2.17%.

Turning to `CN(C(=O)Cc1cccc2occc12)[C@H]1CC[C@@]2(CCCO2)C[C@@H]1N1CCCC1`, the activation is inactive: -0.0374%.

In the case of `O=P(Cl)(Cl)c1ccccc1`, the activation is inactive: 0%.

In the case of `O=[P+](Oc1ccccc1)Oc1ccccc1`, the activation was inactive: 0.56%.

For `O=[p+]1oc2ccccc2c2ccccc21` (centres undefined), the activation was inactive: 0.0659%.

As for `CCCCO[P+](=O)OCCCC`, the activation was inactive: -0.338% and inactive: -0.519%.

Consider `O=P(Cl)(Oc1ccccc1)Oc1ccccc1`, for which the activation is inactive: 2%.
